In ChEMBL document CHEMBL4007420, “Structural Optimization and Pharmacological Evaluation of Inhibitors Targeting Dual-Specificity Tyrosine Phosphorylation-Regulated Kinases (DYRK) and CDC-like kinases (CLK) in Glioblastoma” (J Med Chem, 2017):

Experiments:
Homo sapiens [1] = species: Homo sapiens; experiment: Ratio of IC50 for DYRK2 (unknown origin) using woodtide as substrate to IC50 for CLK1 (unknown origin) using KKGRSRSRSRSRSR as substrate
Homo sapiens [2] = species: Homo sapiens; experiment: Ratio of IC50 for DYRK2 (unknown origin) using woodtide as substrate to IC50 for DYRK1B (unknown origin) using woodtide as substrate
Homo sapiens [3] = species: Homo sapiens; experiment: Ratio of IC50 for DYRK1B (unknown origin) using woodtide as substrate to IC50 for DYRK1A (unknown origin) using woodtide as substrate
Homo sapiens [4] = species: Homo sapiens; experiment: Ratio of IC50 for CLK1 (unknown origin) using KKGRSRSRSRSRSR as substrate to IC50 for DYRK1A (unknown origin) using woodtide as substrate
Homo sapiens [5] = species: Homo sapiens; experiment: Ratio of IC50 for DYRK2 (unknown origin) using woodtide as substrate to IC50 for DYRK1A (unknown origin) using woodtide as substrate

| Compound | Ratio IC50 (Homo sapiens [1]) | Ratio IC50 (Homo sapiens [2]) | Ratio IC50 (Homo sapiens [3]) | Ratio IC50 (Homo sapiens [4]) | Ratio IC50 (Homo sapiens [5]) |
| --- | --- | --- | --- | --- | --- |
| NC(=O)Nc1ccc(-c2cnc3[nH]cc(-c4ccc(O)cc4)c3c2)cc1 | 10 | 10 |  |  |  |
| Nc1ccc(-c2cnc3[nH]cc(-c4ccc(O)cc4)c3c2)cc1 | 10 | 10 |  |  |  |
| CC(=O)Nc1ccc(-c2cnc3[nH]cc(-c4ccc(O)cc4)c3c2)cc1 |  |  | 5 | 5 | 80 |
